Results published in US20060094649A1, “Hla-a1,-a2,-a3,-a24,-b7, and-b44 tumor associated antigen peptides and compositions” (priority 2002, published 2006).

Tested on: HLA-A3 supertype molecules
Test: HLA-A3 supertype cross-binding (A*0301, A*1101, A*3101, A*3301, A*6801)
Settings: for number of A3 supertype alleles bound: of 5 alleles, affinity ≦500 nM

| Molecule | Number of A3 alleles crossbound (Table 16c, Mage2/3-derived) | Number of A3 alleles crossbound (Table 16d, p53-derived) | other results |
| --- | --- | --- | --- |
| CC[C@H](C)[C@H](NC(=O)[C@@H](NC(=O)[C@@H](N)[C@@H](C)O)C(C)C)C(=O)N[C@@H](CC(N)=O)C(=O)N[C@@H](Cc1ccc(O)cc1)C(=O)N[C@H](C(=O)N[C@@H](CC(C)C)C(=O)N[C@@H](Cc1c[nH]c2ccccc12)C(=O)N[C@@H](CCCCN)C(=O)O)[C@@H](C)O [compound 84] | 3 | – | – |
| CC(C)C[C@H](NC(=O)[C@H](CC(C)C)NC(=O)[C@H](CC(C)C)NC(=O)[C@H](Cc1ccccc1)NC(=O)[C@H](Cc1c[nH]cn1)NC(=O)[C@@H](NC(=O)[C@@H](N)CC(C)C)C(C)C)C(=O)N[C@@H](CCCCN)C(=O)O [compound 85] | 3 | – | – |
| CC(C)C[C@H](NC(=O)[C@H](CC(C)C)NC(=O)[C@H](CC(C)C)NC(=O)[C@H](Cc1ccccc1)NC(=O)[C@H](Cc1c[nH]cn1)NC(=O)[C@@H](NC(=O)[C@@H](N)CC(C)C)C(C)C)C(=O)N[C@@H](CCCCN)C(=O)N[C@@H](Cc1ccc(O)cc1)C(=O)O [compound 86] | 2 | – | – |
| CC(C)C[C@H](NC(=O)[C@H](CC(C)C)NC(=O)[C@H](CC(C)C)NC(=O)[C@H](Cc1ccccc1)NC(=O)[C@H](Cc1c[nH]cn1)NC(=O)[C@@H](NC(=O)[C@@H](N)CC(C)C)C(C)C)C(=O)N[C@@H](CCCCN)C(=O)N[C@@H](CCCCN)C(=O)O [compound 87] | 3 | – | – |
| CC(C)C[C@H](NC(=O)[C@H](CC(C)C)NC(=O)[C@H](CC(C)C)NC(=O)[C@H](Cc1ccccc1)NC(=O)[C@H](Cc1c[nH]cn1)NC(=O)[C@@H](NC(=O)[C@@H](N)CC(C)C)C(C)C)C(=O)N[C@@H](CCCCN)C(=O)N[C@@H](CCCNC(=N)N)C(=O)O [compound 88] | 5 | – | – |
| CSCC[C@H](NC(=O)[C@@H](N)CO)C(=O)N[C@@H](CC(C)C)C(=O)N[C@@H](CCC(=O)O)C(=O)N[C@H](C(=O)N[C@@H](Cc1ccccc1)C(=O)N[C@@H](CCC(=O)O)C(=O)NCC(=O)N[C@@H](CCCNC(=N)N)C(=O)O)C(C)C [compound 89] | 3 | – | – |
| CSCC[C@H](NC(=O)[C@@H](N)CO)C(=O)N[C@@H](CC(C)C)C(=O)N[C@@H](CCC(=O)O)C(=O)N[C@H](C(=O)N[C@@H](Cc1ccccc1)C(=O)N[C@@H](CCC(=O)O)C(=O)NCC(=O)N[C@@H](CCCCN)C(=O)O)C(C)C [compound 90] | 4 | – | – |
| CC(C)[C@H](NC(=O)[C@@H](N)CO)C(=O)N[C@@H](Cc1ccccc1)C(=O)N[C@@H](C)C(=O)N[C@@H](Cc1c[nH]cn1)C(=O)N1CCC[C@H]1C(=O)N[C@@H](CCCNC(=N)N)C(=O)N[C@@H](CCCCN)C(=O)O [compound 91] | 3 | – | – |
| CC[C@H](C)[C@H](NC(=O)[C@@H](NC(=O)[C@H](C)N)C(C)C)C(=O)N[C@@H](CCC(=O)O)C(=O)N[C@H](C(=O)N[C@@H](CO)C(=O)N[C@@H](Cc1ccc(O)cc1)C(=O)N[C@H](C(=O)N[C@@H](CCCCN)C(=O)O)C(C)C)[C@@H](C)O [compound 93] | 3 | – | – |
| CC[C@H](C)[C@H](NC(=O)[C@@H](NC(=O)[C@H](C)N)C(C)C)C(=O)N[C@@H](CCC(=O)O)C(=O)N[C@H](C(=O)N[C@@H](CO)C(=O)N[C@@H](Cc1ccc(O)cc1)C(=O)N[C@H](C(=O)N[C@@H](CCCNC(=N)N)C(=O)O)C(C)C)[C@@H](C)O [compound 94] | 3 | – | – |
| CC[C@H](C)[C@H](N)C(=O)N[C@H](C(=O)N[C@@H](Cc1ccc(O)cc1)C(=O)N1CCC[C@H]1C(=O)N1CCC[C@H]1C(=O)N[C@@H](CC(C)C)C(=O)N[C@@H](Cc1c[nH]cn1)C(=O)N[C@@H](CCC(=O)O)C(=O)N[C@@H](CCCNC(=N)N)C(=O)O)C(C)C [compound 96] | 5 | – | – |
| CC(C)[C@H](NC(=O)[C@@H](N)CCCCN)C(=O)N[C@@H](Cc1ccc(O)cc1)C(=O)N[C@@H](CCC(N)=O)C(=O)NCC(=O)N[C@@H](CO)C(=O)N[C@@H](Cc1ccc(O)cc1)C(=O)NCC(=O)N[C@@H](Cc1ccccc1)C(=O)N[C@@H](CCCCN)C(=O)O [compound 106] | – | 4 | – |
| CSCC[C@H](NC(=O)[C@@H](N)CCCCN)C(=O)N1CCC[C@H]1C(=O)N[C@@H](CS)C(=O)N[C@@H](CCC(N)=O)C(=O)N[C@@H](CC(C)C)C(=O)N[C@@H](C)C(=O)N[C@@H](CCCCN)C(=O)O [p53.132] | – | – | number of A3 supertype alleles bound: 3 |
| CEA.419: CEA-derived A3 supertype wildtype peptide (Table 16a) (TISPSYTYYR) | – | – | number of additional A3 supertype alleles bound (besides A*1101): three |
| MAGE2.277: MAGE2-derived A3 supertype wildtype peptide (Table 16c) (ALIETSYVK) | – | – | number of A3 supertype alleles bound: 3 |
| MAGE3.189: MAGE3-derived A3 supertype wildtype peptide (Table 16c) (LLGDNQIMPK) | – | – | number of A3 supertype alleles bound: 3 |
| p53.124: p53-derived A3 supertype wildtype peptide (Table 16d) (CTYSPALNK) | – | – | number of A3 supertype alleles bound: 3 |
| p53.240B3K9: p53-derived A3 supertype analog, B at position 3 and K at position 9 | – | – | change in A3 supertype binding, analog vs wildtype (in words): improved binding to one of the two primary alleles |
| p53.273: p53-derived A3 supertype wildtype 8-mer (Table 16d) (RVCACPGR) | – | – | number of A3 supertype alleles bound: 4 |

Now from value to molecule, other results behind:

| Number of A3 alleles crossbound (Table 16c, Mage2/3-derived) | Number of A3 alleles crossbound (Table 16d, p53-derived) | Molecule | other results |
| --- | --- | --- | --- |
| 3 | – | CC[C@H](C)[C@H](N)C(=O)N[C@H](C(=O)N[C@@H](Cc1ccc(O)cc1)C(=O)N1CCC[C@H]1C(=O)N1CCC[C@H]1C(=O)N[C@@H](CC(C)C)C(=O)N[C@@H](Cc1c[nH]cn1)C(=O)N[C@@H](CCC(=O)O)C(=O)N[C@@H](CCCCN)C(=O)O)C(C)C [compound 97] | – |
| 3 | – | CC[C@H](C)[C@H](NC(=O)[C@@H](NC(=O)[C@@H]1CCCN1C(=O)[C@H](Cc1ccccc1)NC(=O)[C@H](Cc1ccccc1)NC(=O)[C@@H](N)Cc1ccc(O)cc1)C(C)C)C(=O)N[C@@H](Cc1ccccc1)C(=O)N[C@@H](CO)C(=O)N[C@@H](CCCCN)C(=O)O [compound 98] | – |
| 3 | – | CC[C@H](C)[C@H](NC(=O)[C@H](CCC(N)=O)NC(=O)[C@H](CC(N)=O)NC(=O)[C@H](CC(=O)O)NC(=O)CNC(=O)[C@H](CC(C)C)NC(=O)[C@@H](N)CC(C)C)C(=O)N[C@@H](CCSC)C(=O)N1CCC[C@H]1C(=O)N[C@@H](CCCCN)C(=O)O [compound 101] | – |
| 4 | – | CC(C)C[C@H](NC(=O)[C@@H](NC(=O)[C@@H](N)CO)C(C)C)C(=O)N[C@@H](CCC(=O)O)C(=O)N[C@H](C(=O)N[C@@H](Cc1ccccc1)C(=O)N[C@@H](CCC(=O)O)C(=O)NCC(=O)N[C@@H](CCCNC(=N)N)C(=O)O)C(C)C [compound 102] | – |
| 5 | – | CC(C)C[C@H](NC(=O)[C@@H](NC(=O)[C@@H](N)CO)C(C)C)C(=O)N[C@@H](CCC(=O)O)C(=O)N[C@H](C(=O)N[C@@H](Cc1ccccc1)C(=O)N[C@@H](CCC(=O)O)C(=O)NCC(=O)N[C@@H](CCCCN)C(=O)O)C(C)C [compound 103] | – |
| – | 4 | CC(C)[C@H](NC(=O)[C@@H](N)CCCCN)C(=O)N[C@@H](Cc1ccc(O)cc1)C(=O)N[C@@H](CCC(N)=O)C(=O)NCC(=O)N[C@@H](CO)C(=O)N[C@@H](Cc1ccc(O)cc1)C(=O)NCC(=O)N[C@@H](Cc1ccccc1)C(=O)N[C@@H](CCCNC(=N)N)C(=O)O [compound 105] | – |
| – | 3 | CC[C@H](C)[C@H](NC(=O)[C@H](C)NC(=O)[C@H](CCSC)NC(=O)[C@H](C)NC(=O)[C@H](CCCNC(=N)N)NC(=O)[C@@H](NC(=O)[C@H](CCCNC(=N)N)NC(=O)[C@@H](NC(=O)CN)C(C)C)C(C)C)C(=O)N[C@@H](Cc1ccc(O)cc1)C(=O)N[C@@H](CCCCN)C(=O)O [compound 112] | – |
| – | 3 | CC[C@H](C)[C@H](NC(=O)[C@H](C)NC(=O)[C@H](CCSC)NC(=O)[C@H](C)NC(=O)[C@H](CCCNC(=N)N)NC(=O)[C@@H](NC(=O)[C@@H](N)CCCNC(=N)N)C(C)C)C(=O)N[C@@H](Cc1ccc(O)cc1)C(=O)N[C@@H](CCCNC(=N)N)C(=O)O [compound 114] | – |
| – | 1 | CSCC[C@H](NC(=O)CNC(=O)CNC(=O)[C@H](CCSC)NC(=O)[C@H](CS)NC(=O)[C@H](CO)NC(=O)[C@@H](N)CO)C(=O)N[C@@H](CC(N)=O)C(=O)N[C@@H](CCCNC(=N)N)C(=O)O [compound 117] | – |
| – | 4 | CC[C@H](NC(=O)[C@@H](NC(=O)[C@@H](N)CO)C(C)C)C(=O)N[C@@H](CCSC)C(=O)NCC(=O)NCC(=O)N[C@@H](CCSC)C(=O)N[C@@H](CC(N)=O)C(=O)N[C@@H](CCCNC(=N)N)C(=O)O [compound 119] | – |
| – | 3 | CC[C@H](NC(=O)[C@@H](NC(=O)[C@@H](N)CO)C(C)C)C(=O)N[C@@H](CCSC)C(=O)NCC(=O)NCC(=O)N[C@@H](CCSC)C(=O)N[C@@H](CC(N)=O)C(=O)N[C@@H](CCCCN)C(=O)O [compound 120] | – |
| – | 3 | CC[C@H](NC(=O)[C@@H](NC(=O)[C@@H](N)CO)C(C)C)C(=O)N[C@@H](CCSC)C(=O)NCC(=O)NCC(=O)N[C@@H](CCSC)C(=O)N[C@@H](CC(N)=O)C(=O)N[C@@H](CCCNC(=N)N)C(=O)N[C@@H](CCCCN)C(=O)O [compound 123] | – |
| – | 3 | CSCC[C@H](NC(=O)[C@H](CC(C)C)NC(=O)[C@H](CCCCN)NC(=O)[C@H](CCCCN)NC(=O)[C@H](Cc1c[nH]cn1)NC(=O)[C@H](CCCNC(=N)N)NC(=O)[C@H](CO)NC(=O)[C@@H](NC(=O)[C@@H](N)CO)C(C)C)C(=O)N[C@@H](Cc1ccccc1)C(=O)N[C@@H](CCCCN)C(=O)O [compound 127] | – |
| – | 3 | CSCC[C@H](NC(=O)[C@H](CC(C)C)NC(=O)[C@H](CCCCN)NC(=O)[C@H](CCCCN)NC(=O)[C@H](Cc1c[nH]cn1)NC(=O)[C@H](CCCNC(=N)N)NC(=O)[C@H](CO)NC(=O)[C@@H](NC(=O)[C@@H](N)CO)C(C)C)C(=O)N[C@@H](Cc1ccccc1)C(=O)N[C@@H](CCCNC(=N)N)C(=O)O [compound 128] | – |
